Assay results from patent US8791267B2, “Biaryl PDE4 inhibitors for treating inflammatory, cardiovascular and CNS disorders” (Decode Genetics EHF, priority 2007, dated 2014).

Tested on: sephadex bead stimulated LTE4 production in whole human blood (eosinophil activation)
Type: cell-based
Settings: read-out: IC50 in ex-vivo LTE4 assay

COc1ccc(Cc2ccc(C(=O)N(C)C)nc2)c(F)c1-c1cccc(Cl)c1 [P-382, 5-(3′-Chloro-2-fluoro-6-methoxy-biphenyl-3-ylmethyl)-pyridine-2-carboxylic acid dimethylamide]
IC50: < 1000 nM
